According to ChEMBL document CHEMBL4325838, “Norbornane-based cationic antimicrobial peptidomimetics targeting the bacterial membrane” (Eur J Med Chem, 2018):

Tests used:
[1] = tested on: Klebsiella pneumoniae; details: ATCC 13883, 10 ug/disc
[2] = tested on: Pseudomonas aeruginosa; assay: Antibacterial activity against Pseudomonas aeruginosa ATCC 27853 after 18 to 20 hrs by broth microdilution assay; format: functional
Procedure, shortened: (§1)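 Bacteria grown overnight at 37 °C with shaking in nutrient broth or Mueller-Hinton broth (MHB). Cultures were diluted 50-fold in MHB and grown 1.5–3 h to mid-log phase, then set at 5×10^5 CFU/mL final. Compounds were 2-fold serially diluted, final 32 to 0.015 µg/mL, 1% DMSO. After 18–20 h at 37 °C, MIC was read visually as the lowest concentration with no visible growth. Two independent experiments of n = 2 (n = 4).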

[3] = tested on: Acinetobacter baumannii; details: ATCC 19606 = CIP 70.34 = JCM 6841, 10 ug/disc
[4] = tested on: Pseudomonas aeruginosa; details: ATCC 27853, 10 ug/disc
[5] = tested on: Klebsiella pneumoniae; assay: Antibacterial activity against multidrug-resistant Klebsiella pneumoniae ATCC 700603 after 18 to 20 hrs by broth microdilution assay; format: functional
Procedure, shortened: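 Strains were grown overnight at 37 °C with shaking in nutrient broth or MHB, diluted 50-fold in MHB and grown 1.5–3 h to mid-log. Compounds were 2-fold serially diluted in MHB at 32 to 0.015 µg/mL final (1% DMSO) with 5×10^5 CFU/mL. After 18–20 h at 37 °C, MIC was read visually as the lowest concentration with no visible growth. Two independent experiments of n = 2 (n = 4).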

[6] = tested on: Escherichia coli; assay: Antibacterial activity against Escherichia coli ATCC 25922 after 18 to 20 hrs by broth microdilution assay; format: functional
Procedure, shortened: as §1

[7] = tested on: Acinetobacter baumannii; assay: Antibacterial activity against Acinetobacter baumannii ATCC 19606 after 18 to 20 hrs by broth microdilution assay; format: functional; details: ATCC 19606 = CIP 70.34 = JCM 6841
Procedure, shortened: as §1

In the case of COLISTIN SULFATE, the IZ [1] was 20 mm, the MIC [2] was 0.25 µg/mL and the IZ [3] was 20 mm. For the same sequence, the IZ [4] was 19 mm, the MIC [5] was 0.03 µg/mL and the MIC [6] was 0.06 µg/mL. The MIC [7] was 0.06 µg/mL.
